Biological target: T1, Enoyl-[acyl-carrier-protein] reductase [NADH] (Mycobacterium tuberculosis, UniProt P9WGR1)
T1 sequence (P9WGR1 whole entry): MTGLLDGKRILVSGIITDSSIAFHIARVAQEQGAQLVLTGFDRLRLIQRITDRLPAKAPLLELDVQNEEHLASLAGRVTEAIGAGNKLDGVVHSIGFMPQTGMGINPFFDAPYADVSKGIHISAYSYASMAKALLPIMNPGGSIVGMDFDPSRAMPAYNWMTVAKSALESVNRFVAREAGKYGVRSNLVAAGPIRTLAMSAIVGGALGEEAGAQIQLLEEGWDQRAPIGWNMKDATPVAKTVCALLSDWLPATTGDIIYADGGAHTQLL

| Structure (SMILES) | IC50 [µM] |
| --- | --- |
| O=C(Nc1ccc2c(c1)OCCO2)C1CC(=O)N(C2CCCCC2)C1 (stereo not given) | > 100 |
| CCn1c2ccccc2c2cc(NC(=O)C3CC(=O)N(C4CCCCC4)C3)ccc21 (stereo not given) | 2.57 |
| Cc1cccc(NC(=O)C2CC(=O)N(C3CCCCC3)C2)c1 (stereo not given) | 16.8 |
| Cc1ccc(N2CC(C(=O)Nc3cccc(Cl)c3C)CC2=O)cc1 (stereo not given) | > 100 |
| O=C(Nc1cc(Cl)ccc1Cl)C1CC(=O)N(C2CCCCC2)C1 (stereo not given) | 56.5 |
| O=C(C1CC(=O)N(C2CCCCC2)C1)N1CCN(C(c2ccccc2)c2ccc(F)cc2)CC1 (stereo not given) | 6.41 |
| Cc1ccc(N2CC(C(=O)Nc3cccc(Br)c3)CC2=O)cc1 (stereo not given) | > 100 |
| Cc1ccc(N2CC(C(=O)Nc3cccc(Br)c3)CC2=O)cc1C (stereo not given) | > 100 |
| O=C(Nc1cc(C(F)(F)F)cc(C(F)(F)F)c1)C1CC(=O)N(C2CCCCC2)C1 (stereo not given) | 3.67 |
| O=C(C1CC(=O)N(C2CCCCC2)C1)N1CCN(C(c2ccccc2)c2ccc(Cl)cc2)CC1 (stereo not given) | 4.47 |
| O=C(Nc1ccccc1Br)C1CC(=O)N(C2CCCCC2)C1 (stereo not given) | > 100 |
| O=C(Nc1cccc(Cl)c1)C1CC(=O)N(c2ccccc2)C1 (stereo not given) | 3.94 |
| COc1cc(NC(=O)C2CC(=O)N(C3CCCCC3)C2)cc(C(F)(F)F)c1 (stereo not given) | 1.3 |
| Cc1cc(NC(=O)C2CC(=O)N(C3CCCCC3)C2)ccc1Br (stereo not given) | 37.4 |
| O=C(Nc1cccc(Br)c1)C1CC(=O)N(c2ccc(F)cc2)C1 (stereo not given) | 29.2 |
| O=C(Nc1cccc([N+](=O)[O-])c1)C1CC(=O)N(C2CCCCC2)C1 (stereo not given) | 10.6 |
| Cc1ccc(C)c(NC(=O)C2CC(=O)N(C3CCCCC3)C2)c1 (stereo not given) | 10 |
| O=C(Nc1ccc(Cl)cc1Cl)C1CC(=O)N(C2CCCCC2)C1 (stereo not given) | 56 |
| CC(=O)c1ccc(NC(=O)C2CC(=O)N(C3CCCCC3)C2)cc1 (stereo not given) | 73.6 |
| CCOc1ccc(NC(=O)C2CC(=O)N(C3CCCCC3)C2)cc1 (stereo not given) | > 100 |
| Cc1cccc(C)c1NC(=O)C1CC(=O)N(C2CCCCC2)C1 (stereo not given) | > 100 |
| Cc1c(Cl)cccc1NC(=O)C1CC(=O)N(c2ccc(OC(C)C)cc2)C1 (stereo not given) | > 100 |
| O=C(C1CC(=O)N(C2CCCCC2)C1)N1CCc2ccccc21 (stereo not given) | 5.1 |
| O=C(Nc1ccc(F)c(Cl)c1)C1CC(=O)N(C2CCCCC2)C1 (stereo not given) | 14.8 |
| O=C(Nc1cccc(Cl)c1)C1CC(=O)N(C2CCCCC2)C1 (stereo not given) | 1.35 |

| Structure (SMILES) | IC50 [µM] |
| --- | --- |
| Cc1cc([N+](=O)[O-])ccc1NC(=O)C1CC(=O)N(C2CCCCC2)C1 (stereo not given) | 31.4 |
| O=C(Nc1ccc(Oc2ccccc2)cc1)C1CC(=O)N(C2CCCCC2)C1 (stereo not given) | > 100 |
| Cc1c(Cl)cccc1NC(=O)C1CC(=O)N(c2cccc([N+](=O)[O-])c2)C1 (stereo not given) | > 100 |
| COC(=O)c1ccccc1NC(=O)C1CC(=O)N(C2CCCCC2)C1 (stereo not given) | 34.9 |
| Cc1ccc(C(c2ccccc2)N2CCN(C(=O)C3CC(=O)N(C4CCCCC4)C3)CC2)cc1 (stereo not given) | 5.18 |
| Cc1ccc(N2CC(C(=O)Nc3cccc(Cl)c3)CC2=O)cc1 (stereo not given) | > 100 |
| O=C(C1CC(=O)N(C2CCCCC2)C1)N1CCN(C(c2ccc(F)cc2)c2ccc(F)cc2)CC1 (stereo not given) | 5.51 |
| O=C(Nc1ccc(Cl)cc1)C1CC(=O)N(C2CCCCC2)C1 (stereo not given) | > 100 |
| Cc1c(Cl)cccc1NC(=O)C1CC(=O)N(c2ccc(Br)cc2)C1 (stereo not given) | > 100 |
| COc1ccc(Cl)cc1NC(=O)C1CC(=O)N(C2CCCCC2)C1 (stereo not given) | 1.6 |
| O=C(Nc1cc(F)cc(F)c1)C1CC(=O)N(C2CCCCC2)C1 (stereo not given) | 1.49 |
| Cc1c(Cl)cccc1NC(=O)C1CC(=O)N(c2ccccc2)C1 (stereo not given) | > 100 |
| O=C(Nc1cc(-c2ccccc2)c(O)c(-c2ccccc2)c1)C1CC(=O)N(C2CCCCCCC2)C1 (stereo not given) | 1.29 |
| O=C(Nc1ccc(I)cc1)C1CC(=O)N(C2CCCCC2)C1 (stereo not given) | 14.5 |
| O=C(Nc1cccc2c1Cc1ccccc1-2)C1CC(=O)N(C2CCCCC2)C1 (stereo not given) | 1.39 |
| Cc1cc(C)cc(NC(=O)C2CC(=O)N(C3CCCCC3)C2)c1 (stereo not given) | 3.14 |
| CC(C)c1cccc(NC(=O)C2CC(=O)N(C3CCCCC3)C2)c1 (stereo not given) | 5.55 |
| O=C(Nc1cccc(C(F)(F)F)c1)C1CC(=O)N(C2CCCCC2)C1 (stereo not given) | 3.51 |
| CCCOc1ccc(N2CC(C(=O)Nc3cccc(Cl)c3)CC2=O)cc1 (stereo not given) | > 100 |
| O=C(Nc1cccc(OCc2ccccc2)c1)C1CC(=O)N(C2CCCCC2)C1 (stereo not given) | 3.39 |
| CC(=O)Nc1ccc(NC(=O)C2CC(=O)N(C3CCCCC3)C2)cc1 (stereo not given) | > 100 |
| O=C(Nc1ccc(Br)cc1)C1CC(=O)N(C2CCCCC2)C1 (stereo not given) | 28 |
| Cc1c(Cl)cccc1NC(=O)C1CC(=O)N(C2CCCCC2)C1 (stereo not given) | 23.1 |
| O=C(Nc1cc(-c2ccccc2)c(O)c(-c2ccccc2)c1)C1CC(=O)N(C2CCCCC2)C1 (stereo not given) | 0.062 |
| O=C(Nc1cc(-c2ccccc2)c(O)c(-c2ccccc2)c1)C1CC(=O)N(C2CCCCC2)C1 (stereo in doubt; p64) | 0.14 |
